Results published in patent publication US6060462A, “Electrophilic peptide analogs as inhibitors of trypsin-like enzymes” (DuPont Pharmaceuticals Company, priority 1997, dated 2000).

The chains behind the UniProt entries cited, without tags or fusion partners. Residues count along the entry.
UniProt P08709, 213-466 limits assumed: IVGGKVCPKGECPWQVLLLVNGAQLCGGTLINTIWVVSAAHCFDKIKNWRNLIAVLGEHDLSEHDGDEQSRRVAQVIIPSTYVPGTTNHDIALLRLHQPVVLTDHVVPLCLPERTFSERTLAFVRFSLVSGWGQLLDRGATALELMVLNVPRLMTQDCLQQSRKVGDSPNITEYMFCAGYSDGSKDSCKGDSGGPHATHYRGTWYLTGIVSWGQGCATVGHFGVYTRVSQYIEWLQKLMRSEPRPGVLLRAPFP
UniProt P08709, 61-212 partner limits assumed: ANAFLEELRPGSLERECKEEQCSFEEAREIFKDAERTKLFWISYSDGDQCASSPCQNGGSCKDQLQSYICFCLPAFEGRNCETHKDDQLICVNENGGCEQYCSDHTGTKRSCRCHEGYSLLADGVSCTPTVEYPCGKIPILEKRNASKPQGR
UniProt P00742, 235-488 limits assumed: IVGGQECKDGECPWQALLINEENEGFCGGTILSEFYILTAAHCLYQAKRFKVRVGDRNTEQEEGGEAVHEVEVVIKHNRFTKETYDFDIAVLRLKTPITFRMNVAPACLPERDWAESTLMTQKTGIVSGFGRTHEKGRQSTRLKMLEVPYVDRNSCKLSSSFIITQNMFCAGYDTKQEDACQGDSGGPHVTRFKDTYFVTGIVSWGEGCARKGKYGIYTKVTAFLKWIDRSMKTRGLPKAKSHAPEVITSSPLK
UniProt P00742, 41-179 partner limits assumed: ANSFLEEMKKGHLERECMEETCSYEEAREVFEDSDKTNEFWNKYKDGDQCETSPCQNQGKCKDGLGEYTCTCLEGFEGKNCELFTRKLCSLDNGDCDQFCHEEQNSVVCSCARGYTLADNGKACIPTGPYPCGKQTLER

Experiments:
human factor VIIa = human factor VIIa (Homo sapiens, UniProt P08709); test: Inhibition of Factor VIIa hydrolysis of chromogenic substrate S2288 (Ki); settings: purified human factor VIIa, 0.05 M tris buffer, pH 7.6
human factor Xa = human factor Xa (Homo sapiens, UniProt P00742); test: Inhibition of Factor Xa hydrolysis of chromogenic substrate S2222 (Ki)
human thrombin = human thrombin (Homo sapiens, UniProt P00734); test: Inhibition of thrombin hydrolysis of chromogenic substrate S2238 (Ki); settings: read-out: Ki values for inhibition of Serine Proteases: Trombin, purified human thrombin, 0.10 M sodium phosphate buffer, pH 7.5

Row | Ki values for inhibition of Serine Proteases: Factor VIIa (human factor VIIa) | Ki (human factor Xa; read-out: Ki values for inhibition of Serine Proteases: Factor Xa, purified human factor Xa, 0.10 M sodium phosphate buffer, pH 7.5) [µM] | Ki (human thrombin) [µM] | Ki values for inhibition of Serine Proteases: Factor Xa (human factor Xa; purified human factor Xa, 0.10 M sodium phosphate buffer, pH 7.5) | SMILES
1 | inactive | < 50 | < 50 | – | CN(CC(=O)NC(CCCCNC(=O)OCc1ccccc1)C(=O)O)C(=O)CCc1ccccc1 (stereo not drawn)
2 | Inactive | – | < 50 | Inactive | COC(=O)C(CCCCN)NC(=O)CN(C)C(=O)CCc1ccccc1 (single isomer, unassigned)
